Data taken from ChEMBL document CHEMBL1944614, “A scaffold hopping approach to identify novel monoamine oxidase B inhibitors” (Bioorg Med Chem Lett, 2012).

Amino acid sequences for entries named in this document (tags omitted).
UniProt P27338, whole entry: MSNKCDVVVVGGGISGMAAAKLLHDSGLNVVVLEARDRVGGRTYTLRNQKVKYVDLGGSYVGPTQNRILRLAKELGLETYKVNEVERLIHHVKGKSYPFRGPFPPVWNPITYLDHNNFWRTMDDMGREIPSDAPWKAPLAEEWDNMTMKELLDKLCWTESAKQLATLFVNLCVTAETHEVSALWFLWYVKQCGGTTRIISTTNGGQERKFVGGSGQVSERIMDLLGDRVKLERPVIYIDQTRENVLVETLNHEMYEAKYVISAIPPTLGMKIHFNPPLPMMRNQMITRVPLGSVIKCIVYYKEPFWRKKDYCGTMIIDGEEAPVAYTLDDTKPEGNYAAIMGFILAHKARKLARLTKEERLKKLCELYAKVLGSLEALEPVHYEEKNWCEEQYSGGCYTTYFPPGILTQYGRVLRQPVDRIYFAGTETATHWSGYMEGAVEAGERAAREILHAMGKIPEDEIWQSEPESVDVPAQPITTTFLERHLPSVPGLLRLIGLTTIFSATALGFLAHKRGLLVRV

Molecular target: Amine oxidase [flavin-containing] B (Homo sapiens, UniProt P27338)
Test: Inhibition of human recombinant MAOB using kynuramine as substrate by fluorimetry

Structure (SMILES): CN(C)c1ccc(/C=C2\Oc3cc(O)ccc3C2=O)cc1
- IC50: 242 nM
